# scFv variants of Ab-95 (light chain) against a SARS-CoV-2 spike peptide

Target: peptide PDVDLGDISGINAS, taken from heptad repeat 2 (HR2) of SARS-CoV-2 spike.

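AAYL52 was designed without a model: most single CDR substitutions and a random sample of double and triple ones. The scFvs were displayed on barcoded MATa yeast, the peptide on MATalpha yeast. The frequency of each diploid, read from paired DNA barcodes, reflects how well the two displayed proteins bind. The ratio of observed to expected reads was calibrated, replicate by replicate, on BCL2-family standards whose Kd was known from biolayer interferometry. Mating was done three times.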

Parent scFv Ab-95: VH joined to VL by a 15-residue (Gly4Ser)3 linker. Changes lie in the light chain CDRs alone.
VH: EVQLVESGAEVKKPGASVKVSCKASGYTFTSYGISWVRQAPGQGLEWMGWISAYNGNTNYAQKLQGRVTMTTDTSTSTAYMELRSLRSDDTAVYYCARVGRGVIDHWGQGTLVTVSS
VL: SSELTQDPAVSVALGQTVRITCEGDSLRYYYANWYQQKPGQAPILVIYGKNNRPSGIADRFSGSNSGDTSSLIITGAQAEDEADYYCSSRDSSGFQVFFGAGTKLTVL

Each variant is given by its three light chain CDRs, as the data file delimits them; those of the parent are EGDSLRYYYAN, GKNNRPS, SSRDSSGFQVF. Numbers give log10(Kd / nM), so 0 is 1 nM and 3 is 1 µM. Smaller is tighter. An entry "n.d." has no value in the source: the pair was not observed among the diploids in that replicate. This suggests poor binding but is not conclusive. In this assay the parent's reference entry averaged 2.31; its copy inside this library read 2.25.

CDR-L1	CDR-L2	CDR-L3	log10 Kd (nM) by replicate	control signals
EGDCLRYYYMN	GKNNRPS	SSRDSSGTQVF	3.10 / 2.84 / 2.69	3 of 9 (3.91)
EGSMLRYYYAS	GKNNRPS	SSRDSSGFQVF	2.75 / 3.46 / 3.09	3 of 9 (4.42)
EGDSGRYYYAN	GTNNRPS	SSRDSSGFQVT	4.44 / 3.69 / 3.71	2 of 9 (3.69)
EGDSLRYYYAN	GKNYRPS	SSRDSSSFSVF	n.d. / n.d. / n.d.	0 of 9
EGDSLRYYYAN	GKNYRPS	SSRASSGFQAF	2.99 / 3.29 / 2.44	6 of 9 (3.93)
FGDSLRYYYAN	VKNGRPS	SSRDSSGFQVF	3.56 / n.d. / 4.33	4 of 9 (3.62)
EGDSLRLYCAN	GKNNRPS	SSGDSSGFQVF	n.d. / 4.30 / 4.19	3 of 9 (3.70)
EGDSLRYYYAN	GQNNRPC	KSRDSSGFQVF	4.34 / n.d. / n.d.	1 of 9 (4.00)
EGDSLRYYYAN	GKNNRPS	SMLDSSGFQVS	n.d. / n.d. / n.d.	2 of 9 (3.59)
EGDSLRYYYAN	GKNVRNS	SSRDSSGFQVF	2.30 / 1.84 / 2.64	0 of 9
EGVSLRYYYAN	GKNNRPS	SIRDSKGFQVF	n.d. / n.d. / n.d.	1 of 9 (2.64)
EKDSLRYYYAN	GKINRPS	YSRDSSGFQVF	n.d. / n.d. / n.d.	1 of 9 (4.87)
EGDSLVYYYSN	GKNNRPS	SSRDSSGFQVT	5.75 / 4.07 / 3.91	2 of 9 (3.70)
PGDSLRVYYAN	GKNNRPS	SSTDSSGFQVF	4.04 / 4.26 / n.d.	4 of 9 (4.08)
EGDSSRYYYAN	GKMNRPS	SSRDSSGFQVV	4.16 / 6.04 / n.d.	6 of 9 (4.73)
EGDSLRYYYAA	GKNNRPS	MSRDSSGFQVF	2.23 / 2.21 / 2.06	4 of 9 (4.32)
EYDSLRYYYAN	GKENRPS	SSRDGSGFQVF	n.d. / n.d. / 3.99	3 of 9 (3.70)
EGDQLRYYYAN	GKNNRPS	SSRDGSGFQVF	4.47 / n.d. / n.d.	1 of 9 (4.40)
EGDSLRYYYAN	GKNNRPV	SSRDSIGRQVF	2.59 / 2.69 / 2.47	1 of 9 (3.12)
EGDSLRYSYAN	GKNNRPS	SSRDSSGAQVV	1.95 / 1.82 / 0.64	6 of 9 (3.65)
EGDSLRRDYKN	GKNNRPS	SSRDSSGFQVF	3.91 / 4.44 / 3.07	4 of 9 (3.71)
EGDSLRGYYAN	GKNNRPP	SSRDSSGKQVF	1.66 / 1.84 / 1.27	2 of 9 (3.71)
EGDSLRYYYAN	GKQNAPS	SSRDSMGFQVF	n.d. / 5.60 / n.d.	4 of 9 (3.92)
EGDSLRYYYAN	GKNNRPY	SSRDSSGFGVF	n.d. / n.d. / 3.68	2 of 9 (4.06)
ENDSLRYYYAN	GKNNRPS	SSRDSHKFQVF	4.10 / n.d. / 4.37	3 of 9 (3.63)
EGDSLRYYYAC	GKNNRPS	SSRDSSGFQVF	2.29 / 2.43 / n.d.	2 of 9 (4.42)
EVDSLRYYYAN	GKNHRPS	SSRDSCGFQVF	5.16 / 4.46 / n.d.	6 of 9 (4.04)
EGDSLRYQYAN	GKNNMPS	SSRDQSGFQVF	1.23 / 1.25 / 0.66	3 of 9 (4.83)
EHDSLRYYYAN	GKNNRPS	SSRDSGGFQVF	3.11 / 3.37 / 2.23	3 of 9 (3.62)
EVDSLRYYYAN	GKNNRPS	SKRDSSWFQVF	n.d. / n.d. / n.d.	1 of 9 (3.00)
EGDSLQYYYAN	GKANRPS	SSRDSKGFQVF	3.26 / 2.65 / n.d.	2 of 9 (4.19)
EGDSLRYYYAN	GKNNRPS	SSRCSSGFINF	3.38 / 2.43 / 2.42	3 of 9 (4.75)
EGDKLRYYDAN	GKNNRPS	SSRDSSGFQVF	3.99 / 3.20 / 3.95	1 of 9 (3.55)
EGDSLVYYYAN	GKNNRPQ	SSVDSSGFQVF	n.d. / 4.24 / 3.13	1 of 9 (3.66)
EGRSLAYYYAN	GKNQRPS	SSRDSSGFQVF	2.22 / 1.91 / 1.91	4 of 9 (4.40)
EGDSLRGYYAN	GKNERPS	SSRDSSGFPVF	2.26 / 2.68 / 2.18	1 of 9 (3.46)
CGDSLRYYQAN	GKNNRPS	SSRDSSGFVVF	2.17 / 2.49 / 2.08	0 of 9
VGDSLRYYEAN	GKNNRPS	SSYDSSGFQVF	2.80 / 4.29 / n.d.	1 of 9 (3.23)
EGDSLRYYYAN	GKNNRPW	SQRDSSGFWVF	3.43 / 3.73 / 3.17	2 of 9 (3.95)
RGISLRYYYAN	GKNNRPS	SSLDSSGFQVF	4.12 / 4.73 / n.d.	4 of 9 (4.15)
EGDSLRLYYAN	CKNNRPS	SSRDLSGFQVF	n.d. / n.d. / n.d.	1 of 9 (3.34)
EGDSLRYYYAN	GKNNRPS	SVCDRSGFQVF	3.31 / 3.10 / 3.86	2 of 9 (4.57)
EGDSDRYYYAN	GKNNRPD	MSRDSSGFQVF	3.23 / 3.18 / 2.32	0 of 9
EGDSLRYYYRN	GKNNRPS	SSRDSYGAQVF	n.d. / n.d. / n.d.	0 of 9
DGDSLRYYYAA	GKNNRPS	SSRDSSGFQIF	4.59 / n.d. / 4.18	3 of 9 (4.57)
EGDSLRYMYAN	GKNNRPS	SSRDSSGIQVI	3.91 / 3.33 / n.d.	2 of 9 (3.36)

A selection of 3 entries from above:

CDR-L1	CDR-L2	CDR-L3	log10 Kd (nM) by replicate	control signals
EGDSLVYYYAN	GKNNRPQ	SSVDSSGFQVF	n.d. / 4.24 / 3.13	1 of 9 (3.66)
EGDSLRRDYKN	GKNNRPS	SSRDSSGFQVF	3.91 / 4.44 / 3.07	4 of 9 (3.71)
EGDSLRYYYAN	GKNNRPW	SQRDSSGFWVF	3.43 / 3.73 / 3.17	2 of 9 (3.95)

As a blank, each scFv also met three strains without target: over library AAYL52, 28% of these pairings were detected, typically at 3.91 and seldom below 2.90. The control count says in how many pairings with the empty strains this scFv gave a signal, with their mean in brackets.

Values reported by Engelhart et al. 2022, doi:10.1038/s41597-022-01779-4 (FLAb copy).